Laboratory results taken from patent publication US20210337838A1, “RECOMBINANT EXPRESSION OF FUMONISIN AMINE OXIDASE” (priority 2018, published 2021).

Test system: Fumonisin B1
Assay: purified protein, by the assay type
Conditions: other: recombinant AnFAO_15309; pH 7.0

## AnFAO_15309 (Aspergillus niger CBS 513.88)
  Km: 390.6 µM
  kcat: 0.145 s⁻¹
  kcat/Km: 370 M⁻¹ s⁻¹
